The data set is described as follows: Partition coefficient determination in octanol/water (k). The data set is classed as physicochemical. As to conditions: octan-1-ol/water, 50 μM sample, UHPLC-MS; SD <0.01. The method, then:
The partition coefficients of the untreated flavonoids in octanol/water (k) were analysed to determine their degrees of lipophilicity. In test tubes, 2.0 ml of a solution of the sample with a concentration of 50 μM were added to 2.0 ml of octanol saturated with water. The mixture was shaken for 1 min and then centrifuged for 15 min at 3000 rpm. […] The partition coefficient was obtained using the equation: k=Co/Ca×r; where Co = test compound concentration in octanol, Ca = test compound concentration in aqueous solution, r = ratio of the volumes of the oily and the aqueous phases.

In the case of Naringin octanoate, the “Partition coefficient (k)” value is 0.86.

Consider Rutin decanoate, for which the “Partition coefficient (k)” value is recorded as 0.95.
